The values that follow come from patent publication US11530229B2, “Cyano cyclobutyl compounds for CBL-B inhibition and uses thereof” (Nurix Therapeutics, Inc., priority 2019, dated 2022).

Experiment [1] relates to primary human total T-cells. As to the kind of experiment: T-cell activation, CD25 surface staining, Biological Example 9. The experiment is classed as cell-based. Conditions: 48 hours, fold change over baseline, Table 5; for CD25 staining CD3 1 μM / CD25 staining CD3 3 μM: anti-CD3 stimulation alone; for CD25 staining CD3 1 μM / CD25 staining CD3/CD28 1 μM: 1 μM inhibitor; for CD25 staining CD3 3 μM: 3 μM inhibitor; for CD25 staining CD3/CD28 0.3 μM / CD25 staining CD3/CD28 1 μM: anti-CD3 and anti-CD28 co-stimulation; for CD25 staining CD3/CD28 0.3 μM: 0.3 μM inhibitor.

In experiment [2] the test system is primary human total T-cells. As to the kind of experiment: T-cell activation, CD25 surface staining, Biological Example 13. It counts as cell-based. Conditions: 48 hours, fold change over baseline, Table 8; for CD25 staining CD3 1 μM / CD25 staining CD3 3 μM: anti-CD3 stimulation alone; for CD25 staining CD3 1 μM / CD25 staining CD3/CD28 1 μM: 1 μM inhibitor; for CD25 staining CD3 3 μM: 3 μM inhibitor; for CD25 staining CD3/CD28 0.3 μM / CD25 staining CD3/CD28 1 μM: anti-CD3 and anti-CD28 co-stimulation; for CD25 staining CD3/CD28 0.3 μM: 0.3 μM inhibitor.

Take `Cc1cc(C(=O)Nc2cccc([C@]3(Cc4nncn4C)C[C@@H](C#N)C3)c2)nc(C2CC2)n1` [Compound 1, N-(3-((1r,3r)-3-cyano-1-((4-methyl-4H-1,2,4-triazol-3-yl)methyl)cyclobutyl)phenyl)-2-cyclopropyl-6-methylpyrimidine-4-carboxamide]: in experiment [1], the “CD25 staining CD3 1 μM” value is given as “A (A indicates >1.14 fold)” and the “CD25 staining CD3 3 μM” value is recorded as “A (A indicates >1.14 fold)”. In addition, in experiment [2], the “CD25 staining CD3 1 μM” value is recorded as “A (A indicates >1.14 fold)” and the “CD25 staining CD3 3 μM” value was “A (A indicates >1.14 fold)”.
With `Cn1cnnc1C[C@]1(c2cccc(N3Cc4c(cc(CN5CCC6(CC6)C5)cc4C(F)(F)F)C3=O)c2)C[C@H](C#N)C1` [Compound 4, (1r,3r)-3-(3-(6-((5-azaspiro[2.4]heptan-5-yl)methyl)-1-oxo-4-(trifluoromethyl)isoindolin-2-yl)phenyl)-3-((4-methyl-4H-1,2,4-triazol-3-yl)methyl)cyclobutane-1-carbonitrile], in experiment [1], the “CD25 staining CD3/CD28 0.3 μM” value is given as “A (A indicates >1.39 fold)”, the “CD25 staining CD3/CD28 1 μM” value is reported as “A (A indicates >1.39 fold)”, the “CD25 staining CD3 1 μM” value is reported as “A (A indicates >1.14 fold)” and the “CD25 staining CD3 3 μM” value was “A (A indicates >1.14 fold)”. Moreover, in experiment [2], the “CD25 staining CD3/CD28 0.3 μM” value is reported as “A (A indicates >1.39 fold)”, the “CD25 staining CD3/CD28 1 μM” value is reported as “A (A indicates >1.39 fold)”, the “CD25 staining CD3 1 μM” value is “A (A indicates >1.14 fold)” and the “CD25 staining CD3 3 μM” value was “A (A indicates >1.14 fold)”.
As for `C[C@@H]1CN(Cc2cc3c(c(C(F)(F)F)c2)CN(c2cccc([C@]4(Cc5nncn5C)C[C@@H](C#N)C4)c2)C3=O)CCC1(F)F` [Compound 11, (1R,3r)-3-(3-(6-(((R)-4,4-difluoro-3-methylpiperidin-1-yl)methyl)-1-oxo-4-(trifluoromethyl)isoindolin-2-yl)phenyl)-3-((4-methyl-4H-1,2,4-triazol-3-yl)methyl)cyclobutane-1-carbonitrile], in experiment [1], the “CD25 staining CD3/CD28 0.3 μM” value is reported as “A (A indicates >1.39 fold)”, the “CD25 staining CD3/CD28 1 μM” value was “A (A indicates >1.39 fold)”, the “CD25 staining CD3 1 μM” value was “A (A indicates >1.14 fold)” and the “CD25 staining CD3 3 μM” value is “A (A indicates >1.14 fold)”. Further, in experiment [2], the “CD25 staining CD3/CD28 0.3 μM” value is “A (A indicates >1.39 fold)”, the “CD25 staining CD3/CD28 1 μM” value is on record as “A (A indicates >1.39 fold)”, the “CD25 staining CD3 1 μM” value is reported as “A (A indicates >1.14 fold)” and the “CD25 staining CD3 3 μM” value is “A (A indicates >1.14 fold)”.
As for `C[C@H]1CCCN(Cc2cc3c(c(C(F)(F)F)c2)CN(c2cccc([C@]4(Cc5nncn5C)C[C@@H](C#N)C4)c2)C3=O)C1` [Compound 19, (1R,3r)-3-((4-methyl-4H-1,2,4-triazol-3-yl)methyl)-3-(3-(6-(((S)-3-methylpiperidin-1-yl)methyl)-1-oxo-4-(trifluoromethyl)isoindolin-2-yl)phenyl)cyclobutane-1-carbonitrile], in experiment [1], the “CD25 staining CD3/CD28 0.3 μM” value was “A (A indicates >1.39 fold)”, the “CD25 staining CD3/CD28 1 μM” value is on record as “A (A indicates >1.39 fold)”, the “CD25 staining CD3 1 μM” value is “A (A indicates >1.14 fold)” and the “CD25 staining CD3 3 μM” value is given as “A (A indicates >1.14 fold)”. Moreover, in experiment [2], the “CD25 staining CD3/CD28 0.3 μM” value is recorded as “A (A indicates >1.39 fold)”, the “CD25 staining CD3/CD28 1 μM” value is reported as “A (A indicates >1.39 fold)”, the “CD25 staining CD3 1 μM” value is given as “A (A indicates >1.14 fold)” and the “CD25 staining CD3 3 μM” value was “A (A indicates >1.14 fold)”.
For `Cn1cnnc1C[C@]1(c2cccc(N3Cc4c(cc(CN[C@H]5CCC(F)(F)C5)cc4C(F)(F)F)C3=O)c2)C[C@H](C#N)C1` [Compound 20, (1R3r)-3-(3-(6-((((S)-3,3-difluorocyclopentyl)amino)methyl)-1-oxo-4-(trifluoromethyl)isoindolin-2-yl)phenyl)-3-((4-methyl-4H-1,2,4-triazol-3-yl)methyl)cyclobutane-1-carbonitrile], in experiment [1], the “CD25 staining CD3/CD28 0.3 μM” value is reported as “A (A indicates >1.39 fold)”, the “CD25 staining CD3/CD28 1 μM” value is on record as “A (A indicates >1.39 fold)”, the “CD25 staining CD3 1 μM” value was “A (A indicates >1.14 fold)” and the “CD25 staining CD3 3 μM” value is listed as “A (A indicates >1.14 fold)”. Besides, in experiment [2], the “CD25 staining CD3/CD28 0.3 μM” value is on record as “A (A indicates >1.39 fold)”, the “CD25 staining CD3/CD28 1 μM” value is reported as “A (A indicates >1.39 fold)”, the “CD25 staining CD3 1 μM” value is “A (A indicates >1.14 fold)” and the “CD25 staining CD3 3 μM” value is “A (A indicates >1.14 fold)”.
With `Cn1cnnc1C[C@]1(c2cccc(N3Cc4c(cc(CN[C@@H]5CCC(F)(F)C5)cc4C(F)(F)F)C3=O)c2)C[C@H](C#N)C1` [Compound 21, (1R,3r)-3-(3-(6-((((R)-3,3-difluorocyclopentyl)amino)methyl)-1-oxo-4-(trifluoromethyl)isoindolin-2-yl)phenyl)-3-((4-methyl-4H-1,2,4-triazol-3-yl)methyl)cyclobutane-1-carbonitrile], in experiment [1], the “CD25 staining CD3/CD28 0.3 μM” value is recorded as “A (A indicates >1.39 fold)”, the “CD25 staining CD3/CD28 1 μM” value is listed as “A (A indicates >1.39 fold)”, the “CD25 staining CD3 1 μM” value is reported as “A (A indicates >1.14 fold)” and the “CD25 staining CD3 3 μM” value was “A (A indicates >1.14 fold)”. In experiment [2], the “CD25 staining CD3/CD28 0.3 μM” value is reported as “A (A indicates >1.39 fold)”, the “CD25 staining CD3/CD28 1 μM” value is “A (A indicates >1.39 fold)”, the “CD25 staining CD3 1 μM” value is listed as “A (A indicates >1.14 fold)” and the “CD25 staining CD3 3 μM” value was “A (A indicates >1.14 fold)”.
In the case of `C[C@@H]1CN(Cc2cc(C(=O)Nc3cccc([C@]4(Cc5nncn5C)C[C@@H](C#N)C4)c3)nc(C3CC3)c2)CCO1` [Compound 56, N-(3-((1r,3R)-3-cyano-1-((4-methyl-4H-1,2,4-triazol-3-yl)methyl)cyclobutyl)phenyl)-6-cyclopropyl-4-(((R)-2-methylmorpholino)methyl)picolinamide], in experiment [1], the “CD25 staining CD3/CD28 0.3 μM” value was “A (A indicates >1.39 fold)”, the “CD25 staining CD3/CD28 1 μM” value is “A (A indicates >1.39 fold)”, the “CD25 staining CD3 1 μM” value is “A (A indicates >1.14 fold)” and the “CD25 staining CD3 3 μM” value is “A (A indicates >1.14 fold)”. Moreover, in experiment [2], the “CD25 staining CD3/CD28 0.3 μM” value was “A (A indicates >1.39 fold)”, the “CD25 staining CD3/CD28 1 μM” value was “A (A indicates >1.39 fold)”, the “CD25 staining CD3 1 μM” value was “A (A indicates >1.14 fold)” and the “CD25 staining CD3 3 μM” value is “A (A indicates >1.14 fold)”.
